# Laboratory results reported in ChEMBL document CHEMBL4049450, “Discovery of 5-Azaindazole (GNE-955) as a Potent Pan-Pim Inhibitor with Optimized Bioavailability” (J Med Chem, 2017).
# Sequences of proteins named here, by UniProt entry; tags and fusion partners are left off.
# UniProt P11309, whole entry: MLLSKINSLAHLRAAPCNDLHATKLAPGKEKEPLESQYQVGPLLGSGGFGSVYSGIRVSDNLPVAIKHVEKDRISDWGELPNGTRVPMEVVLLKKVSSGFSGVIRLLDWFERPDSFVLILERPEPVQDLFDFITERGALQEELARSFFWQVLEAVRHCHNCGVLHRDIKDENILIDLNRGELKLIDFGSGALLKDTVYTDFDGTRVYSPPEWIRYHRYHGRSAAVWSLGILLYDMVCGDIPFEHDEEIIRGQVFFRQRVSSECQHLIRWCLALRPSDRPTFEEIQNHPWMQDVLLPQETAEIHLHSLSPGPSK
# Columns and labels:
# [1] = molecular target: Serine/threonine-protein kinase pim-3 (Homo sapiens, UniProt Q86V86); assay: Inhibition of PIM3 (unknown origin) using 5FAM-ARKRRRHPSGPPTA as substrate after 90 mins in presence of ATP by caliper microfluidic mobility shift assay
# [2] = molecular target: Serine/threonine-protein kinase pim-1 (Homo sapiens, UniProt P11309); assay: Inhibition of PIM1 (unknown origin) using 5FAM-ARKRRRHPSGPPTA as substrate after 90 mins in presence of ATP by caliper microfluidic mobility shift assay
Compound,Ki [1] [nM],Ki [2] [nM]
Cc1cncc(-c2cc3c(cn2)cnn3-c2cccc([C@H]3CNCCC3(F)F)n2)n1,0.02,–
CCn1cc(-c2cc3c(-c4cccc(N5CCOCC5)n4)n[nH]c3cn2)cn1,–,0.6
